US12606568B2, “SMARCA degraders and uses thereof” (Kymera Therapeutics, Inc., priority 2020, dated 2026)

Protein sequences, listed by entry. Tags and fused reporters are not part of them.
UniProt P51531, whole entry: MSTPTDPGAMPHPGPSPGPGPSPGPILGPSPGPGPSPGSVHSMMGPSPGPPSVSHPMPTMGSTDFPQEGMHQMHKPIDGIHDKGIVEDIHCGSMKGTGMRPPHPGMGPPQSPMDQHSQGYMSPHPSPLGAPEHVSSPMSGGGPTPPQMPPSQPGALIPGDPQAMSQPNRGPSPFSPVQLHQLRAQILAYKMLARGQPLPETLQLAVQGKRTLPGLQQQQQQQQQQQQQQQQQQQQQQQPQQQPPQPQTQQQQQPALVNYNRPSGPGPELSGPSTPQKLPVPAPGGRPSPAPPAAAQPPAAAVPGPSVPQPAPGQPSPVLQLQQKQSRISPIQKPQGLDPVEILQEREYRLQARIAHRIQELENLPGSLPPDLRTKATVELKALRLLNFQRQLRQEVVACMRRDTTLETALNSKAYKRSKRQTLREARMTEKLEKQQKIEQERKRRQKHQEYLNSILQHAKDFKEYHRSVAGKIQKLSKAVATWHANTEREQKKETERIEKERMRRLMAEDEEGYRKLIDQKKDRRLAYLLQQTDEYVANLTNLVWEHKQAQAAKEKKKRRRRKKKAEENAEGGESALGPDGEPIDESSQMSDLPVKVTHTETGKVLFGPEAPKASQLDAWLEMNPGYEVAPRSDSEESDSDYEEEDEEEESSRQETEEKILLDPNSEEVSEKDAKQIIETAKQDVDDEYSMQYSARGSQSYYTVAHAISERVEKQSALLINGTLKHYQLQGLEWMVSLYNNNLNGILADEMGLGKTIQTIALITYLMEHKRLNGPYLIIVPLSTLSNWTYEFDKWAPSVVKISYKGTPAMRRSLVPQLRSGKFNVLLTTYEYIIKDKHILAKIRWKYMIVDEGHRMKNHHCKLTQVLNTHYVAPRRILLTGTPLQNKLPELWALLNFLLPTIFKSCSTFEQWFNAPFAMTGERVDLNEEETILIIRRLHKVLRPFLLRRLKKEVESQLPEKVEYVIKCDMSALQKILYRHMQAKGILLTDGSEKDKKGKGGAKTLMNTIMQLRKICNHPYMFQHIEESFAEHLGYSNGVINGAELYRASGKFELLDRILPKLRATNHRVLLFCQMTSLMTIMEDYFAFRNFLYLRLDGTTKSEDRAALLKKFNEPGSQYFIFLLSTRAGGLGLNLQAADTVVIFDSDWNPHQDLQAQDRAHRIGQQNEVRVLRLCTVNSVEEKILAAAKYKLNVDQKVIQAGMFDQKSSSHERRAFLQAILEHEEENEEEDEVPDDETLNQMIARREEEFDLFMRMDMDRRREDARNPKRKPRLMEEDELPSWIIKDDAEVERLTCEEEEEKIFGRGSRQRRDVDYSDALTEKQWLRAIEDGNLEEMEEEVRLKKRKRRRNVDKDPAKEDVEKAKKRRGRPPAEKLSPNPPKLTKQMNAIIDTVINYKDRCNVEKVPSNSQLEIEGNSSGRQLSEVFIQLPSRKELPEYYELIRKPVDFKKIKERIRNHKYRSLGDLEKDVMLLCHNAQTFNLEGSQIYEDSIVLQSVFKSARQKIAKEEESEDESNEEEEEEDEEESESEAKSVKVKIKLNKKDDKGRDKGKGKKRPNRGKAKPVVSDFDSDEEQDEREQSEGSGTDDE

Molecular target: SMARCA2 (Homo sapiens, UniProt P51531)
Assay: SMARCA2 Western blot MV4-11 degradation
Experimental: Example 54. SMARCA2 and SMARCA 4 Western Blot MV4-11 Degradation
Cells were seeded into 6-well plates (MV4-11: 4×10^6 cells/well/1 ml) and 1 ml of 2× compound solution was added into the well to make the final concentration and the plates were mixed well and incubated for 24 hours (No cytotoxicity was observed). The cell were collected with media and spun at 3000 rpm for 5 minutes. The supernatant was aspirated and the well and the cells were washed with cold PBS once and combined for centrifugation again; the supernatant aspirated again. 200 ul pre-chilled RIPA lysis buffer (Boston BioProducts BP-115D) with protease/phosphatase inhibitor (Roche 05892791001/Roche 04906837001) was directly added into the tube to lyze the cells for 20 minutes on ice. The cell lysate were collected into EP tubes and spun at 13000 rpm for 20 minutes and 72 ul supernatant was transferred to a fresh EP tube containing 18 ul of 5× loading buffer (Beyotime Bio P0015) to make the loading samples. The samples were heated to 100° C. for 10 minutes and cooled to RT and microcentrifuged. 20 ul of samples were loaded onto SDS-PAGE gel (Novex, WG1402BOX) and the gel was run at 80 V for 20 minutes and 120 V for 1.5 hours. The samples were electrotransfer to a NC membrane using wet-transfer method with 250 mA for 2.5 hours. […] The membrane was washed three times with TBST, 5 minutes each and lastly the LiCOR was read. […]

Cc1ncsc1-c1ccc(CNC(=O)[C@@H]2C[C@@H](O)CN2C(=O)[C@@H](NC(=O)C2(F)CC2)C(C)(C)C)c(O[C@H]2CC[C@@H](N3CCC(c4cnc(N5C6CCC5CN(c5cc(-c7ccccc7O)nnc5N)C6)nc4)CC3)CC2)c1
SMARCA2 MSD MV411 degradation 24 h: average Dmax % (MV4-11 cells): A (A (>90% degradation)) | DC50 (read-out: SMARCA2 MSD MV411 degradation 24 h: Mean external-Abs DC50, MV4-11 cells): < 0.1 µM
